Values quoted from earlier work as cited in patent US20100247688A1 (priority 2007, published 2010).

Details: in vivo; cited from earlier work

pirenzepine [AC-91]
CSF concentration: 4 ng/mL
fraction of plasma concentration in CSF: 9.5%
